Source: patent publication US20190135943A1

Molecular target: CD3ε on Cynomolgus pan T cells (cynomolgus monkey) (UniProt Q95LI5)
Assay: flow cytometry on cynomolgus pan T cells, background-corrected MFI

Activated CI104: Activated 3954-0011-C225v5Fcmt4-h20GG-0011-v16sc-H-N (bispecific antibody)
EC50 (read off the curve): 4 nM
